Target: Solute carrier family 22 member 12 (Homo sapiens, UniProt Q96S37)
Test: Inhibition of URAT1 (unknown origin)

Sequences of proteins named here, by UniProt entry; tags and fusion partners are left off. A change or cut given only in a name is not applied to a line headed by its entry.
UniProt Q96S37: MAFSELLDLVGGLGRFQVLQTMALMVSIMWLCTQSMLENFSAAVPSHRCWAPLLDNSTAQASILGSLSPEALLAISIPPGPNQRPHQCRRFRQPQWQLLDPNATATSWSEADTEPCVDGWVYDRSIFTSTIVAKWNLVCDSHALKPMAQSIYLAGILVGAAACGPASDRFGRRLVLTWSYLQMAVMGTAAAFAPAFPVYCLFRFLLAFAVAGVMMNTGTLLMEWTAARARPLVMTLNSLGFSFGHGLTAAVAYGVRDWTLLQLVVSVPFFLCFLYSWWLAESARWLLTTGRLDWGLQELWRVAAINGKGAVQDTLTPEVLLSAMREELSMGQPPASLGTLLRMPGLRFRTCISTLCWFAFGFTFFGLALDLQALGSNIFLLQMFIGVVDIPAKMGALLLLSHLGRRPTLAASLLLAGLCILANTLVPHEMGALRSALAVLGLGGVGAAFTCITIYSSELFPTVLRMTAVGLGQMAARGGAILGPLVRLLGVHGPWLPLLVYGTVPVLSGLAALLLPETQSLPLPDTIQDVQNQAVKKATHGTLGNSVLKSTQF

`O=C(O)CSc1nnc(Br)n1-c1ccc(C2CC2)c2ccccc12` was tested, and the IC50 was 6.7 µM.

Source: ChEMBL document CHEMBL3853264 (Medchemcomm, 2016)
